These are literature values, as cited in patent US20100330171A1, “Dietary Supplement for Eye Health” (priority 2008, published 2010).

In this data set the target is T1, MMP-2 (Homo sapiens, UniProt P08253).
T1 sequence (P08253 110-660): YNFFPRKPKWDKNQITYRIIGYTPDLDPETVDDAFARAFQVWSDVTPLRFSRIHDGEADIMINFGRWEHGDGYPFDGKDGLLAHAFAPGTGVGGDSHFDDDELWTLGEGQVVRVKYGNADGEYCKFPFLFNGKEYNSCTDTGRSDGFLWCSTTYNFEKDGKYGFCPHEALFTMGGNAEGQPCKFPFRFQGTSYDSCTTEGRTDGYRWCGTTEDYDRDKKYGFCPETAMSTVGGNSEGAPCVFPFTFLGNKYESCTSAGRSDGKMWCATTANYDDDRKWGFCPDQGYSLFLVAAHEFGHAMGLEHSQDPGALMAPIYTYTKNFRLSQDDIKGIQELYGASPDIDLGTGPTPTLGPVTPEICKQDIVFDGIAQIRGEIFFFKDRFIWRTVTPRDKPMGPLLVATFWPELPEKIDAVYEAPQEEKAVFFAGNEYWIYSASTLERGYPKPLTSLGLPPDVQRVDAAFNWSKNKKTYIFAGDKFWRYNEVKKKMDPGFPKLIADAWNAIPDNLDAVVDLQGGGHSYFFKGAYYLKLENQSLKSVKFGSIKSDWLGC

With Epigallocatechin-3-gallate [EGCG], the “inhibition of MMP-2” value is reported as “inhibits”.
